# Reference: patent publication US9062320B2, “Biological systems input-output response system and plant sentinels” (dated 2015)
# Assays:
# [1] = tested on: Transgenic Tobacco leaves containing ssTNT, FLS:Trg:PhoR, PhoB:VP64 and PlantPho promoter degreening genes; assay: TNT induced degreening of excised transgenic tobacco leaves; settings: 10 μM TNT
# From the text: (§1) FIGS. 6A-6D show functional plant sentinel via linking input to degreening circuit. TNT induced Degreening: Transgenic Arabidopsis or Tobacco leaves containing ssTNT. FLS:Trg:PhoR, PhoB:VP64, and the PlantPho promoter controlling expression of the degreening genes, were excised and submerged in TNT. The progress of degreening was followed in one day increments. […] FIGS. 6C-D show time-course monitoring of chlorophyll fluorescence as a measure of degreening in Arabidopsis and Tobacco detached leaves induced to degreen. Chlorophyll measurements were obtained using a Fluorcam. One of the parameters derived from chlorophyll measurements is Fv/Fm, which is a measure of photosynthetic capability (specifically maximum quantum yield of PSII). A normal leaf would have an Fv/Fm ratio of 0.8. Note the decline over time in the Fv/Fm ratio as the leaves degreen, however the wild-type Columbia leaf stayed close to 0.8.
# (§2) Arabidopsis and tobacco plants were then co-transformed with the PlantPho promoter-degreening circuit and the SS-TNT, FLS:TRG:PhoR, PhoB:VP64 construct.
# Plant material, transgenic plant production and growth conditions. Wild type Arabidopsis thaliana (ecotype Columbia) were used for analysis and transgenic plant production. Plasmids were assembled as described above and transferred into Agrobacterium tumefaciens strain GV3101 by electroporation. […]
# [2] = tested on: PlantPho promoter linked to GUS; assay: GUS induction by TNT in plants with mutagenized PhoBD53A:VP64 linked to the TNT sensing system; settings: 10 μM TNT; PhoBD53A:VP64 mutagenized protein; control levels close to 4
# From the text: FIGS. 3A-3E show evidence for signal-dependent nuclear shuttling of bacterial response regulators in plants. […] FIG. 3A panels A-B show transient assay of PhoB:GFP fusion protein in onion epidermal cells. Cells treated with cytokinin (B) had stronger nuclear PhoB:GFP accumulation than control (A) cells. FIG. 3A panels C-P show signal-dependent shuttling of PhoB:GFP to the nucleus in transgenic Arabidopsis plants. Localization of PhoB:GFP in roots (C-H), in leaves (I-J, M-N), and the crown (K-L, O-P), a stem-like region. Prior to cytokinin treatment (C, I, K), fluorescence from PhoB:GFP is diffuse and throughout the cells. […] FIG. 3A panels Q-R show confocal microscopy of PhoB:GFP roots showing that the protein enters the nucleus. Insets correspond to close-up views. −CK, plant tissues prior to cytokinin treatment; +CK same plant tissue after cytokinin treatment. DAPI, same tissues treated with DAPI to stain DNA. Arrowheads indicate nuclei. Scale bars=50 μm. […]
# The D53 in PhoB, that is fused with GFP, was mutagenized (Asp 53 to Ala), the DNA sequence verified, and then transferred into Arabidopsis plants (FIG. 3D). […] For PhoB, it was also shown that the Asp53 residue is important in quantitative GUS assays with the TNT sensor protein and hybrid HKs described below. […]
# [3] = tested on: PlantPho promoter linked to GUS; assay: GUS expression from PlantPho promoter in response to TNT (SS-TNT, FLS:Trg:PhoR, PhoB:VP64)
# Description: In FIG. 4B, plants are exposed to TNT, TNT binds the sensor protein, the sensor protein develops affinity for the exterior of the histidine kinase (Trg), the histidine kinase is activated, and the operably linked interior (PhoR) transmits a high energy phosphate group to PhoB:VP64 that then shuttles to the nucleus and activates transcription of the PlantPho promoter linked to GUS. […] All assumptions for this analysis were tested and met.
# T0 represents the first generation of transgenic plants whereas T1 represents the second generation (T0 seed self-pollinated). Seed from two of the T0 parental lines has been obtained. These lines segregate for the two T-DNA inserts that contain the signaling components. One T-DNA contains the genes for the receptor and histidine kinase (SS-TNT, FLS:Trg:PhoR) while the other T-DNA contains the genes for the response regulator (PhoB:VP64) and the PlantPho promoter fused to GUS (PlantPho:GUS). In bacterial sensing and signaling systems, the sensitivity and response systems are extremely sensitive to the other's levels. In the transgenic plants, the two genetic sets segregate in a classic 9:3:3:1 pattern.
# (§3) TNT Induction of Arabidopsis Plants. TNT (ChemService, West Chester, Pa.) stock solution was prepared by dissolving TNT powder in DMSO. Final solutions containing different concentrations of TNT were prepared in water. Plants were incubated in water (control) or water plus 10 uM TNT for 16 hours.
# (§4) GUS fluorometric assays. After incubation of plants with inducer of the gene circuit (CK, TNT, etc.), plants/leaves were ground in extraction buffer (50 mM NaHPO4, pH 7.0, 10 uM β-mercaptoethanol, 10 mM Na2EDTA, pH 8.0, 0.1% Sarcosyl, 0.1% Triton X-100). GUS Reaction: Protein extract combined with extraction buffer was incubated and then stopped with reaction stop buffer (0.2 M Na2 CO3) and 4-MU fluorescence read on a DyNA Quant 200 Fluorometer (Hoefer, Inc., San Francisco, Calif.) (Gallagher, S. R., 1992).
# [4] = tested on: ARR5 promoter fused to GUS; assay: GUS expression from ARR5 promoter in response to TNT (SS:TNT, FLS:TRZ:AHK4); settings: plants homozygous for ARR5 promoter:GUS retransformed with SS:TNT and FLS:TRZ:AHK4
# From the text: Quantitative (GUS) and qualitative (GFP) data were obtained for transgenic Arabidopsis plants homozygous for the ARR5 promoter fused to GUS and GFP, respectively, retransformed with the computationally designed receptor for TNT (SS:TNT) and the hybrid histidine kinase (plant leader (FLS):TRZ:AHK4). In response to TNT, the ARR5 promoter was activated causing an approximate 2-fold increase in GUS expression.
# as §3, §4
# [5] = tested on: Transgenic Arabidopsis leaves containing ssTNT, FLS:Trg:PhoR, PhoB:VP64 and PlantPho promoter degreening genes; assay: TNT induced degreening of excised transgenic Arabidopsis leaves
# From the text: as §1, §2
smiles,measurement,setting,value
Cc1c([N+](=O)[O-])cc([N+](=O)[O-])cc1[N+](=O)[O-],degreening phenotype,[1],notable degreening
same,remote readout (chlorophyll fluorescence),[1]; at 24 hours,notably different
same,GUS activity levels,[2],less than 4 nM MU/mg protein/hour
same,extremely low level of TNT the system is responding to,"[3]; FIG. 4B, FLS:Trg:PhoR, PhoB:VP64, PlantPho:GUS",10 picomoles
same,"GUS activity, induced levels","[3]; TNT induction, wild-type PhoB:VP64, control levels close to 4",≥ 6 nM MU/mg protein/hour
same,increase in expression with sensing TNT,"[3]; data from FIG. 4, model plants",about a two-fold increase in expression
same,increase in GUS expression,[4],2 fold
same,degreening phenotype,[5]; 100 pM (23 parts per trillion) of TNT,white leaves
same,time within which induction could be detected using remote techniques,"[5]; 100 pM TNT, chlorophyll fluorescence (Fluorcam)",≤ 5 h

# Some compounds may have been tested in ways that are not shown here.
